Values of other authors as cited in US20100317733A1, “USE OF CIS-EPOXYEICOSANTRIENOIC ACIDS AND INHIBITORS OF SOLUBLE EPOXIDE HYDROLASE TO REDUCE PULMONARY INFILTRATION BY NEUTROPHILS” (THE REGENTS OF THE UNIVERSITY OF CALIFORNIA, priority 2004, published 2010).

Protein sequences, listed by entry. Tags and fused reporters are not part of them. Lines headed by an entry give the natural chain unless they say otherwise; changes in a name come on top.
UniProt P80299: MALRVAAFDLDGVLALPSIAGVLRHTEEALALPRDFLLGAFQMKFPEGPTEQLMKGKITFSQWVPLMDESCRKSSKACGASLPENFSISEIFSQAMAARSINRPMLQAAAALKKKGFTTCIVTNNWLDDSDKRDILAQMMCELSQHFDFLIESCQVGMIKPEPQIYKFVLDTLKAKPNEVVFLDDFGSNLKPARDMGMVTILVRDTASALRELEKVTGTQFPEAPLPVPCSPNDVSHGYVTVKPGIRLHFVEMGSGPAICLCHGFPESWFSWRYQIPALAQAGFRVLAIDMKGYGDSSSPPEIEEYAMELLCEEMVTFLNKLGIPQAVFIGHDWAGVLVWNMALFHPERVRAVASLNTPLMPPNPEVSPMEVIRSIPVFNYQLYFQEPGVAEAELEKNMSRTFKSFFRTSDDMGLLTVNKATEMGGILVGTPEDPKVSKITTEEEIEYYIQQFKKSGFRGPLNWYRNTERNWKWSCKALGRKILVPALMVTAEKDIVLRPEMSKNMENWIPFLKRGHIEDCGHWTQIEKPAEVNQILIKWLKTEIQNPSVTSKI

Molecular target: sEH (Rattus norvegicus, UniProt P80299)
Settings: injection in SH rats; cited from earlier work

## O=C(NC1CCCCC1)NC1CCCCC1 [DCU, N,N′-dicyclohexyl urea]
  blood pressure: lower blood pressure
  urinary 14,15-EET: increase
  urinary dihydroxy derivative: decrease
